# Literature values in US11103684B2, “Systems, devices, and methods for treating a pulmonary disorder with an agent” (Holaira, Inc., priority 2013, dated 2021).
# Conditions: cited from earlier work
smiles,measurement,value
CCCCC(CC)CCC(CC(C)C)OS(=O)(=O)O (stereo not shown),Solubility in Water (mg/L),"50,000 mg/L"
